# The entries are a selection whose mix differs from that of the whole data set. Active and inactive are the calls of the source.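 Rule for the calls: active = inhibition above the mean of all tested compounds plus 3 SD (cut at about 70% in these data); inactive = the rest.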
# By UniProt entry, the sequences of proteins in these tests, tags left out. Where a name states a change or a piece, a line headed by the entry shows the natural chain unless it says otherwise.
# UniProt Q9Y5X4: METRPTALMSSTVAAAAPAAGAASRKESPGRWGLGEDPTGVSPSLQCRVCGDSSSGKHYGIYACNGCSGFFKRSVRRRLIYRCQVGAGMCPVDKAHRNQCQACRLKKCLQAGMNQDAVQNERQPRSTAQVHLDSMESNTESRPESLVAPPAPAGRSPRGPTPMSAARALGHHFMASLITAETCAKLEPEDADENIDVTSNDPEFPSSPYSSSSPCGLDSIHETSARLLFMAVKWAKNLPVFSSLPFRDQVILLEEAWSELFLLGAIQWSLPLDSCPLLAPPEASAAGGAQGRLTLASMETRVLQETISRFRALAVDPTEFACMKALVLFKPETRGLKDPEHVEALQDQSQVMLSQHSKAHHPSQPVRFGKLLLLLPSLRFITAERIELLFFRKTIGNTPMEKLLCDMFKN
# Target: Photoreceptor-specific nuclear receptor (Homo sapiens) (UniProt Q9Y5X4)
# Assay: NCOR release from NR2E3 in cells – cell-based, luminescence, CHO-S, Gal4-NCOR/VP16-NR2E3, primary screen (AID 602229);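 note: 0% = DMSO with NR2E3 transfected cells and 100% = cells lacking NR2E3 construct; higher means lower luciferase signal from less NR2E3 corepressor binding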
# Conditions: CHO-S Gal4-NCOR/VP16-NR2E3 two-hybrid, luciferase; at 3.98 µM; stronger effect = higher value
row,Compound,inhibition of corepressor binding
1,CSc1ccc(Nc2c([N+](=O)[O-])cc([N+](=O)[O-])cc2[N+](=O)[O-])cc1,inactive: -2.99%
2,O=C(OC1CN2CCC1CC2)c1cccc([N+](=O)[O-])c1 (configuration not stated),inactive: -15.6%
3,CCOC(=O)c1ccc(NC(=O)C(C)(CCl)SC)cc1 (configuration not stated),inactive: -39.2%
4,O=P1(N(CCCl)CCCl)OCCCN1CCCl (configuration not stated),inactive: 12.8%
5,O=P1(N(CCCl)CCCl)Nc2ccccc2N1,inactive: -157%
6,COc1cc(I)ccc1[As](=O)(O)O,inactive: -13.5%
7,COc1ccc2nc(NP(=O)(c3ccccc3)c3ccccc3)sc2c1,inactive: -23.5%
8,Cc1c2c(nc3ccccc13)SC(C(Cl)Cl)C2 (configuration not stated),inactive: -34.2%
9,Cc1cc(=O)[nH]c(N[N+](=O)[O-])n1,inactive: 14.5%
10,O=C(OC1CN2CCC1CC2)C12CC3CC(CC(C3)C1)C2 (configuration not stated),inactive: -10.5%
11,O=[N+]([O-])c1cc(Oc2ccc([N+](=O)[O-])cc2C(F)(F)F)cc([N+](=O)[O-])c1,inactive: -1.89%
12,COc1ccc(N/C(=N/P(=O)(N2CCOCC2)N2CCOCC2)N2CCOCC2)cc1,inactive: -18.9%
13,[N-]=[N+]=NC1CCCCC1NC(=O)c1cc([N+](=O)[O-])cc([N+](=O)[O-])c1 (configuration not stated),inactive: -0.43%
14,Cc1ccc(OP(=O)(Nc2ccc([N+](=O)[O-])cn2)Oc2ccc(C)cc2)cc1,inactive: -14%
15,Cc1ccc2nc3c(c(C)c2c1)CC(C(Cl)Cl)S3 (configuration not stated),inactive: -36%
16,O=[N+]([O-])c1ccc(-c2cc([N+](=O)[O-])c(O)c([N+](=O)[O-])c2)cc1,inactive: -37.6%
17,COc1cc(C(=O)NCC2(N3CCOCC3)CCCCC2)ccc1OCC(C)C,inactive: 22.2%
18,C[As](=O)(O)c1cccc(C(=O)O)c1,inactive: -30.1%
19,O=[As](O)(c1ccc(O)cc1)c1ccccc1O,inactive: -18.9%
20,O=[N+]([O-])c1cc([N+](=O)[O-])c(-c2ccn[nH]2)s1,inactive: 18.5%
21,CC(C)NC(=O)NP(=O)(Oc1ccccc1)Oc1ccccc1,inactive: 20.8%
22,O=C(OC1CN2CCC1CC2)c1cccc2[nH]cnc12 (configuration not stated),inactive: 12.1%
23,CCN(CC)C(=S)SC(NC=O)C(Cl)(Cl)Cl (configuration not stated),inactive: -21.3%

row,Compound,inhibition of corepressor binding
1,ClCCSc1nnc(-c2cccnc2)o1,inactive: -29.9%
2,COC(=O)C1(C)COP(=O)(N2CCCCCC2)OC1 (configuration not stated),inactive: 2.3%
3,CC(C)c1ccc(OP(=O)(Nc2ccccn2)Oc2ccccc2F)cc1 (configuration not stated),inactive: 9.62%
4,Cc1ccc(NP(=O)(Oc2ccccc2F)Oc2ccccc2F)nc1,inactive: -39.1%
5,CN(C(=O)Cc1ccc(Cl)c(Cl)c1)[C@H]1CCCC[C@@H]1N1CCCC1,inactive: 2.8%
6,Cc1cc(SC(NC(=O)c2ccc(F)cc2)C(Cl)(Cl)Cl)ncn1 (configuration not stated),inactive: -9.47%
7,CCOP(=O)(Nc1ccccc1)OCC,inactive: 0.29%
8,O=P(Nc1nc2ccc(Cl)cc2s1)(c1ccccc1)c1ccccc1,inactive: -4.53%
9,CN(C)P(=O)(N(C)C)n1c(Nc2ccccc2)nnc1-c1ccccc1,inactive: -16.1%
10,CCCC1OP(N)(=O)OCC1CC (configuration not stated),inactive: -5.1%
11,CC(=O)Nc1ccc([As](=O)(O)O)cc1,inactive: -3.23%
12,O=C(O)c1ccccc1[As](=O)(O)O,inactive: -14%
13,Nc1cccc2ccc([As](=O)(O)O)cc12,inactive: -21.4%
14,CCN(N=Nc1nonc1N)c1nonc1N,inactive: -16.5%
15,CN1CCCC(OC(=O)C(c2ccccc2)c2ccccc2)C1 (configuration not stated),inactive: -10.3%
16,Clc1ccc(Cl)c(NC2=NCC(CBr)S2)c1 (configuration not stated),inactive: -10.6%
17,Cc1ccc(OP(=O)(Nc2nccs2)Oc2ccc(C)cc2)cc1,inactive: 16.5%
18,COc1ccccc1OP(=O)(Nc1ccc(C)cn1)Oc1ccccc1OC,inactive: -8.95%
19,Cc1ccc(N/C(=N/P(=O)(N2CCOCC2)N2CCOCC2)N2CCOCC2)cc1,inactive: 6.21%
20,CN(C(=O)Cc1ccc(Cl)c(Cl)c1)[C@H]1CCCC[C@H]1N1CCCC1,inactive: -9.72%
21,NC(=O)c1cc([N+](=O)[O-])cc([N+](=O)[O-])c1N,inactive: -16.7%
22,O=[N+]([O-])C1C(O)C(O)C([N+](=O)[O-])C(O)C1O (configuration not stated),inactive: 4.95%
23,O=C(NC(Sc1ccncn1)C(Cl)(Cl)Cl)c1ccccc1 (configuration not stated),inactive: -3.03%

row,Compound,inhibition of corepressor binding
1,Oc1ccccc1CNc1ccccn1,inactive: 14.8%
2,Nc1cc(N)c2nonc2c1[N+](=O)[O-],inactive: -3.51%
3,CC(C)CC(=O)NC(Sc1ccc(Cl)cc1)C(Cl)(Cl)Cl (configuration not stated),inactive: -31.4%
4,CCc1nc2c(n1)c1c(non1O)c1c2no[n+]1[O-],inactive: -4.57%
5,O=[N+]([O-])c1cc([N+](=O)[O-])c(CCNc2ccccc2)c([N+](=O)[O-])c1,inactive: -10.6%
6,Cc1ccc(NP(=O)(Oc2ccccc2)Oc2ccccc2)nc1,inactive: -2.42%
7,O=[N+]([O-])c1cccc2n[nH]nc12,inactive: 9.57%
8,CC(=O)N1C2C3N(C(C)=O)C1C1N(C(C)=O)C(C(N1C(C)=O)N3C(C)=O)N2C(C)=O,inactive: -17%
9,COc1ccc(C2=NCC(CBr)S2)cc1 (configuration not stated),inactive: -8.09%
10,CC1CCN(C(=O)Oc2c(Cl)cc(Cl)c3cccnc23)CC1,inactive: -18.9%
11,c1cc(-c2nn[nH]n2)ccc1-c1nn[nH]n1,inactive: -10.2%
12,CN(C)C(=O)OCCc1n(C)cc[n+]1C,inactive: -2.81%
13,CC(C)c1nc(Nc2ccccc2)n(P(=O)(N(C)C)N(C)C)n1,inactive: 8.68%
14,CC(C)=N/N=C(\N)N[N+](=O)[O-],inactive: -19.7%
15,CCN(/C(=N/P(=O)(N1CCOCC1)N1CCOCC1)N1CCOCC1)c1ccc(OC)cc1,inactive: -9.41%
16,C[N+]1=C2C=CC=CC=C2SC12C([N+](=O)[O-])=CC([N+](=O)[O-])=C[C-]2[N+](=O)[O-] (configuration not stated),active: 98.4%
17,Nc1ccc([As](=O)(O)c2ccc(N)cc2)cc1,inactive: 1.39%
18,O=C(Nc1cc([As](=O)(O)O)ccc1O)c1ccccc1,inactive: -4.24%
19,O=P1(N(CCCl)CCCl)OCCCS1 (configuration not stated),inactive: 9.21%
20,O=C(O)CNc1ccc([As](=O)(O)O)cc1,inactive: -6.48%
21,COC(=O)C1(C)COP(=O)(Nc2ccccc2)OC1 (configuration not stated),inactive: -8.04%
22,O=[N+]([O-])c1cccc(NC2=NCC(CBr)S2)c1 (configuration not stated),inactive: 20.9%
23,O=[N+]([O-])c1ncn(CCn2ncnc2[N+](=O)[O-])n1,inactive: -8.61%

row,Compound,inhibition of corepressor binding
1,CC(C)(C)C(=O)NC(Sc1ccncn1)C(Cl)(Cl)Cl (configuration not stated),inactive: -1.96%
2,C[C@H]1OP(=O)(Oc2ccccc2)[C@H](O)[C@H](O)[C@H]1N=[N+]=[N-] (some centres not stated),inactive: 9.25%
3,O=P(Nc1nc2ccccc2s1)(c1ccccc1)c1ccccc1,inactive: -17.5%
4,O=P(Nc1ccccn1)(c1ccc(Br)cc1)c1ccc(Br)cc1,inactive: -12.4%
5,CN(C)C1(CNC(=O)c2ccc(Cl)c(S(N)(=O)=O)c2)CCCCC1,inactive: -6.2%
6,COc1ccc(N)c([N+](=O)[O-])c1[N+](=O)[O-],inactive: -25.2%
7,Nc1ccc(CCCCOc2ccccc2)cc1,inactive: -45.4%
8,O=C(OC1CN2CCC1CC2)c1cccc(Cl)c1 (configuration not stated),inactive: -5.57%
9,C(Cc1nn[nH]n1)Cc1nn[nH]n1,inactive: 10.5%
10,Nc1ccc([As](=O)(O)c2ccc([N+](=O)[O-])cc2)cc1,inactive: 14.8%
11,O=[As](O)(c1ccccc1)c1ccc(O)cc1,inactive: 11.9%
12,O=[N+]([O-])c1ccc(O)c(/C=N/Nc2ccc([N+](=O)[O-])cc2[N+](=O)[O-])c1,inactive: -25.1%
13,O=[N+]([O-])c1ncn(CCn2cnc([N+](=O)[O-])n2)n1,inactive: 3.86%
14,CC(=O)NC(SC(=S)N(C)C)C(Cl)(Cl)Cl (configuration not stated),active: 100%
15,c1nnnn1CCn1cnnn1,inactive: -5.21%
16,CC(C)C(=O)NC(Sc1ccccc1)C(Cl)(Cl)Cl (configuration not stated),inactive: 27.9%
17,O=P(Nc1nccs1)(c1ccccc1)c1ccccc1,inactive: -11.8%
18,CC(C)(C)C(=O)NC(Sc1ccccc1)C(Cl)(Cl)Cl (configuration not stated),inactive: -17.8%
19,CCc1cc(O)c([N+](=O)[O-])c(C)c1[N+](=O)[O-],inactive: -13%
20,CCOc1ccc(C2=NCC(CBr)S2)cc1 (configuration not stated),inactive: -19.1%
21,O=P1(Nc2nc3ccc(Cl)cc3s2)COc2ccccc2O1 (configuration not stated),inactive: -21.6%
22,CC(=O)Nc1ccc(Oc2c([N+](=O)[O-])cc([N+](=O)[O-])cc2[N+](=O)[O-])cc1,inactive: 0.01%
23,CC(=O)Nc1ccc([As](=O)(O)O)c(O)c1,inactive: -12.9%

row,Compound,inhibition of corepressor binding
1,C[C@H]1OP(=O)(Oc2ccccc2)C[C@@H]2O[C@@H]21 (some centres not stated),inactive: -7.02%
2,C[C@@H]1C=CCP(=O)(Oc2ccccc2)O1 (some centres not stated),inactive: 2.71%
3,Cc1ccccc1CN(C)C(=O)COC(=O)C(O)(c1ccccc1)c1ccccc1,inactive: 2.37%
4,COC(=O)C1(C)COP(=O)(NCc2ccccc2)OC1 (configuration not stated),inactive: -7.29%
5,CC(=O)c1ccc(N2CC2c2ccncc2)cc1 (configuration not stated),inactive: -5.27%
6,N#C/C(=C\c1ccc(N(CCBr)CCBr)cc1)C(N)=O,inactive: 0.42%
7,O=P1(N(CCCl)CCCl)OCCC2CCCCN21 (configuration not stated),inactive: -4.92%
8,Cc1ccc(NP(=O)(Oc2cccc(C)c2)Oc2cccc(C)c2)nc1,inactive: 4.72%
9,c1ccc(-c2nn[nH]n2)c(-c2nn[nH]n2)c1,inactive: -19.6%
10,CCNC(=S)/N=C(\N)N[N+](=O)[O-],inactive: -30.6%
11,O=C(NC1CCS(=O)(=O)C1)NP(=S)(Oc1ccccc1)Oc1ccccc1 (configuration not stated),inactive: -32.2%
12,O=c1c2cc([N+](=O)[O-])ccc2[nH]c2c([N+](=O)[O-])cc([N+](=O)[O-])cc12,inactive: -8.9%
13,CN(C)C(=O)Oc1noc2ccccc12,inactive: 5.71%
14,CC(NC(=O)COC(=O)C(O)(c1ccccc1)c1ccccc1)c1ccccc1 (configuration not stated),inactive: -1.1%
15,Cc1ccccc1OP(=O)(Nc1ccccn1)Oc1ccccc1C,inactive: -9.6%
16,CCC(=O)N1C2C3N(C(=O)CC)C1C1N(C(=O)CC)C(C(N1C(=O)CC)N3C(=O)CC)N2C(=O)CC,inactive: -21.8%
17,O=C(OC1CN2CCC1CC2)c1ccccc1 (configuration not stated),inactive: -33%
18,Cc1ccc(OP(=O)(Nc2ccccn2)Oc2ccc(C)cc2)cc1,inactive: -0.23%
19,CC(=O)NC(SC(=S)N(CC(C)C)CC(C)C)C(Cl)(Cl)Cl (configuration not stated),inactive: -41.8%
20,COC(=O)c1cc2c(s1)N=C(c1ccccc1)N(C)P2(=O)N1CCOCC1 (configuration not stated),inactive: -33.8%

# — PubChem BioAssay AID602229 (The Scripps Research Institute Molecular Screening Center, 2012)
